# The list shows a part of the results, in another mix than the full data. Active and inactive are the calls of the source.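 The calls were made as follows: active = at least 20% inhibition of 6-phosphogluconate dehydrogenase activity; inactive = the rest.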
# Sequences of proteins named here, by UniProt entry; tags and fusion partners are left off.
# UniProt P52209, whole entry: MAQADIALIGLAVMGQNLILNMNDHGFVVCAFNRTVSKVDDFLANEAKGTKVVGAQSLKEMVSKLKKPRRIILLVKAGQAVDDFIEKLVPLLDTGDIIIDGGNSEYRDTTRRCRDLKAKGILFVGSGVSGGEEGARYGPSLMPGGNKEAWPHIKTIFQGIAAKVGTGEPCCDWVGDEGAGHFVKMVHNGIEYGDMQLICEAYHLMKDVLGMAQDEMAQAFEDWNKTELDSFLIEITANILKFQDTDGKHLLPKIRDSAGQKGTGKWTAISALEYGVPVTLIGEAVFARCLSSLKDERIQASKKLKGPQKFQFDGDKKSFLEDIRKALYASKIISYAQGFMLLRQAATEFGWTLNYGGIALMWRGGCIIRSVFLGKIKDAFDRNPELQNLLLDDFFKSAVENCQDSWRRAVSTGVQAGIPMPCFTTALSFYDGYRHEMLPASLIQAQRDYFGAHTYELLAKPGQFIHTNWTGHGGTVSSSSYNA
# Target: 6-phosphogluconate dehydrogenase, decarboxylating (Homo sapiens) (UniProt P52209)
# Assay: 6PGD enzyme inhibitors, primary screen, biochemical, human, recombinant enzyme, NADPH absorbance (AID 1159550)
# Conditions: recombinant 6PGD, NADPH absorbance 341 nm; at 10 µM; stronger effect = higher value
row,Structure (SMILES),inhibition
1,CN(CCCl)CCCl,inactive: 10.3%
